Results: US20250313558A1, “IMIDAZOLIDINE DERIVATIVE OR PHARMACEUTICALLY ACCEPTABLE SALT THEREOF, AND USE THEREOF” (CELLUS INC., priority 2023, published 2025)

Chains of the proteins cited; added tags and fusions are not shown. Residues count along the entry.
UniProt O75173, 213-837 limits assumed: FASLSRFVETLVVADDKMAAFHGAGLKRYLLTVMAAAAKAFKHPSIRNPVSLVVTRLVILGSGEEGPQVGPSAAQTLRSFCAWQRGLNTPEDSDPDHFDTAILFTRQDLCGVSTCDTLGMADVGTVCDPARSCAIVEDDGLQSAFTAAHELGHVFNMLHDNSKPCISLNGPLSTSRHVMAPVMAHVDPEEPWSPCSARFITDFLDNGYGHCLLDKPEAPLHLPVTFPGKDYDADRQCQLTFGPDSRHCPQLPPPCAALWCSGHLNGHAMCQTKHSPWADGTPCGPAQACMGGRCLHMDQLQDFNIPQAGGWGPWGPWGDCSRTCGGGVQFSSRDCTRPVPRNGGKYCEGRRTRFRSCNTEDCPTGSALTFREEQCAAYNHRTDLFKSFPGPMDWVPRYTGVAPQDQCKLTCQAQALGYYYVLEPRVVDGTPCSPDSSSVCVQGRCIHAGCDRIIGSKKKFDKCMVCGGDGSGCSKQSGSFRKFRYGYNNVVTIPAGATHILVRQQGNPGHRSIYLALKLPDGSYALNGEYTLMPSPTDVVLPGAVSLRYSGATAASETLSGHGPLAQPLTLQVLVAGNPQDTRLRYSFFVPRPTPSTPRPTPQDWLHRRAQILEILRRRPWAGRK
UniProt Q9UNA0, 262-930 limits assumed: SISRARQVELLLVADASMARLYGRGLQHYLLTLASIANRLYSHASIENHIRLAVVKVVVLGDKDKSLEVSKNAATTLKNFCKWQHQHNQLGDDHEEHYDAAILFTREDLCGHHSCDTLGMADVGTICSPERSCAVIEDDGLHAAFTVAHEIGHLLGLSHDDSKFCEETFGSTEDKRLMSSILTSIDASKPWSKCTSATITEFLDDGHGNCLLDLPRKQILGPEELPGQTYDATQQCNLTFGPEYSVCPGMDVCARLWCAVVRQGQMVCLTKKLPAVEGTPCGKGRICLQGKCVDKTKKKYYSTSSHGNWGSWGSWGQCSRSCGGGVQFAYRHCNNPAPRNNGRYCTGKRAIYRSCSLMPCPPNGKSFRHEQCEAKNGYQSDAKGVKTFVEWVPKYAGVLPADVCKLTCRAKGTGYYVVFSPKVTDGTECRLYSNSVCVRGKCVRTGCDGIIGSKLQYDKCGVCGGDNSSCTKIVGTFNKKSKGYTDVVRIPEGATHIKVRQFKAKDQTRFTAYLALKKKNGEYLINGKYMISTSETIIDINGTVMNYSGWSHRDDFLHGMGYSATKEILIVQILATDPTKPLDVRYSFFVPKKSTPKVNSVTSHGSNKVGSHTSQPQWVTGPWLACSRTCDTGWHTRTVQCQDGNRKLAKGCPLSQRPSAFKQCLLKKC

Tests used:
[1] = tested on: mouse cartilage explant (femoral heads); assay: Ex vivo mouse cartilage explant, GAG release by DMMB assay; details: femoral heads of 5-day-old mouse, IL-1β, cultured 72 hours
Experimental: Femoral heads of 5-day-old mouse were obtained and treated with each of ADAMTS5 targeting substances while simultaneously treating with IL-1β, and cultured for 72 hours. After culture, the culture medium was collected to confirm GAG release, and the cartilage tissue was fixed, made into a paraffin block, and sectioned using a microtome.
DMMB assay was performed to analyze the amount of cartilage matrix released by decomposition in the culture medium, and as a result, the amount of GAG measured in CLS-S210 and CLS-S282 among ADAMTS5 targeting effective substances was low, and it was confirmed that the compound has an excellent effect in protecting cartilage by inhibiting cartilage matrix decomposition (FIG. 9).

ADAMTS4 = ADAMTS4 (Homo sapiens, UniProt O75173); assay: FRET assay, inhibition of ADAMTS4
Experimental: The control compound GLPG-1972 and four effective compounds (CLS-S210 (Formula 2), CLS-S282 (Formula 3), CLS-S213 (Formula 4), and CLS-S214 (Formula 5)) were treated with ADAMTS5, ADAMTS4, ADAM10, and ADAM17 proteins to perform Fluorescence Resonance Energy Transfer (FRET) evaluation. FRET assay is a method to detect and quantify the fluorescent signal generated when ADAM/ADAMTS proteins […] specific peptides.

ADAMTS5 = ADAMTS5 (Homo sapiens, UniProt Q9UNA0); assay: FRET assay, inhibition of ADAMTS5; details: for IC50: read-out: IC50, inhibition of ADAMTS5
[2] = tested on: mouse model of osteoarthritis; assay: Mouse model of osteoarthritis, pain sensitization experiment; details: DMM surgery mice, injected into the knee
[3] = tested on: mouse model of osteoarthritis; assay: Mouse model of osteoarthritis (DMM surgery), Safranin-O staining, OARSI grade; details: DMM surgery mice, injected into the knee
Experimental: In order to observe the effect of each compound on cartilage degeneration in vivo, Safranin-O staining was performed and the OARSI grade, which can evaluate cartilage damage caused by osteoarthritis, was quantified.
The degree of cartilage damage was evaluated by giving a score from 0 to 6 points. As a result of confirming the cartilage protection effect of ADAMTS5 targeting effective substances in mice of osteoarthritis induced through DMM surgery, in the case of osteoarthritis mice treated with vehicle, surface erosion and cartilage loss were clearly observed as characteristics, whereas in ADAMTS5 targeting compounds, cartilage damage was reduced, and a significant reduction was observed particularly in CLS-S210 and CLS-S282 compounds (FIG. 10).

| SMILES | amount of GAG released into culture medium (DMMB assay) [1] | inhibition ability against ADAMTS4 (in words) (ADAMTS4) | inhibition ability against ADAMTS5 (in words) (ADAMTS5) | IC50 (ADAMTS5) [nM] | pain (pain sensitization experiment) [2] | cartilage damage (OARSI grade, score 0 to 6) [3] |
| --- | --- | --- | --- | --- | --- | --- |
| O=C1NC(=O)C(CNC(=O)N2CCCc3c2[nH]c2ccccc32)(C2CC2)N1 (stereo not drawn) | low | excellent inhibition ability | excellent inhibition ability | 42 | significant pain reduction | significant reduction |
| O=C1NC(=O)C(CCC(=O)N2CCCc3c2[nH]c2ccccc32)(C2CC2)N1 (stereo not drawn) | low | excellent inhibition ability | excellent inhibition ability | 59 | significant pain reduction | significant reduction |
